# Test results published in US8809618B2, “Transgenic mouse for screening and for studies of the pharmacodynamics and pharmacokinetics of ligands acting on the oestrogen receptor and its intracellular receptors, and method for the preparation thereof” (T.O.P. (Transgenic Operative Products) S.R.L., priority 2000, dated 2014).
# Tested on: oestrogen receptors
# Assay: Agonistic/antagonistic action of ER ligands: luciferase activity in tissues of line 2 ERE-luciferase transgenic mice
# Details: line 2 mice, s.c. 250 μg/kg, 6 hours
# Method: To verify the expression of the transgene in the different tissues and its inducibility by oestrogens, 4 independent experiments were carried out on 8 female individuals of each line (4 heterozygotic and 4 homozygotic). For each experiment, two female individuals were ovariectomised. […] The suspension was frozen and thawed three times, and centrifuged for 30 minutes at 13,000 g; the supernatant was collected and equal quantities of protein, measured by the colorimetric method of Bradford, were subjected to enzymatic testing to reveal the activity of the enzyme luciferase. The method for detection of the activity of the reporter was carried out with a kit by the procedure recommended by the producer (Sigma), mixing ca. 20 μg of protein extract with the luciferin substrate in the presence of 0.5 mM ATP and 30 mM DTT and measuring the […] emitted using a luminometer (Lumat BL 9500, Berthold). […] Luciferase enzymatic activity was evaluated and plotted in the graph. […]
substance,measurement,setting,value
4-hydroxytamoxifen,"increase in level of luciferase in the liver (fold induction, treated/control)",liver,12 fold
same,"increase in level of luciferase, second tissue (fold induction, treated/control)","second tissue not printed (brain, bone)",7 fold
